# From published antibiotic growth screens (doi:10.1038/s41589-023-01349-8)
# This is one part of the list.
# Tested on: A. baumannii ATCC 17978
# Test: relative growth (fraction of control); higher = less inhibition
# Details: 50 µM
row,Compound,relative growth
1,O=C(CN1CCOCC1)NCC[C@H]1CC[C@@H](NC(=O)Nc2ccccc2)[C@@H](CO)O1,1.2
2,CC1=NCC[C@@H](C(=O)O)N1,1.02
3,O=C(N[C@H]1CC[C@@H](CC(=O)N2CCOCC2)O[C@H]1CO)c1ccc2c(c1)OCO2,0.952
4,COCC#Cc1ccc2c(c1)O[C@@H](CN(C)Cc1ccccc1F)[C@H](C)CN([C@@H](C)CO)S2(=O)=O,1.21
5,O=C(CN1CCOCC1)N[C@H]1CC[C@@H](CCNC(=O)Nc2cc(F)ccc2F)O[C@@H]1CO,1.04
6,C=CCOc1ccc(CNn2nnnc2N)cc1,0.965
7,O=C(C[C@@H]1C=C[C@@H](NC(=O)CN2CCOCC2)[C@H](CO)O1)NC1CCC1,0.962
8,O.O=C([O-])CC(O)(CC(=O)[O-])C(=O)[O-].[Li+].[Li+].[Li+],0.939
9,C=C(CO)C(=O)O[C@H]1C[C@@]2(C)OC(=O)/C(=C/C)[C@]2(O)CC[C@@]2(C)CC(=O)[C@]1(C(=C)C(=O)OC)O2,1.1
10,CN(C)C(=O)N1CCNCC1,1.06
11,Clc1cc(Cl)cc(Oc2nc(-c3ccccc3)ns2)c1,1.18
12,CCCC[C@@H](CC)COC(=O)c1ccccc1O,0.927
13,O=C1c2c(O)cccc2Cc2cccc(O)c21,0.877
14,CNc1nc(OC)cc(OC)n1,1.18
15,COc1cccc2c1C(=O)c1c(O)c3c(c(O)c1C2=O)C[C@@](O)(C(C)=O)C[C@@H]3O[C@H]1C[C@H](N)[C@H](O)[C@H](C)O1.Cl,0.562
16,C[C@@H]1O[C@@H](O[C@@H]2[C@@H](O)[C@H](OCCc3ccc(O)c(O)c3)O[C@H](COC(=O)/C=C/c3ccc(O)c(O)c3)[C@H]2O)[C@H](O)[C@H](O)[C@H]1O,1.09
17,O/N=C/c1ccccc1C(F)(F)F,0.939
18,C[C@@H]1CN([C@@H](C)CO)S(=O)(=O)c2ccc(C#CCN(C)C)cc2O[C@H]1CN(C)Cc1ccc(F)cc1,0.567
19,CO/N=C(/C(=O)NC1C(=O)N2C(C(=O)O)=C(C[N+]3(C)CCCC3)CSC12)c1csc(N)n1.[Cl-] (stereo not drawn),0.152
20,N#Cc1ncoc1N1CCC(C(N)=O)CC1,1.02

row,Compound,relative growth
1,CCCCCCCCCCCCCCCC(=O)OCC(O)CO (stereo not drawn),1.17
2,O=C(CN1CCOCC1)NCC[C@H]1CC[C@H](NC(=O)Cc2ccccn2)[C@H](CO)O1,1.07
3,CCC(=O)N(C)C[C@H]1Oc2ncc(C#C[C@@H](C)O)cc2C(=O)N([C@H](C)CO)C[C@@H]1C,0.979
4,O=C(C[C@@H]1CC[C@H]2[C@@H](COC[C@@H](O)CN2C(=O)Nc2ccc3c(c2)OCO3)O1)N1CCN(c2ccccc2)CC1,1.01
5,OC(Cn1cncn1)(Cn1cncn1)c1ccc(F)cc1F,1.18
6,CC1(C)C(=O)C=C[C@@]2(C)C1C=C[C@]1(C)C2CC[C@@]2(C)[C@H](c3ccoc3)OC(=O)[C@H]3O[C@]321 (stereo partly drawn),1.28
7,C[C@@H]1CN([C@@H](C)CO)S(=O)(=O)c2ccc(-c3cncnc3)cc2O[C@H]1CN(C)C(=O)c1cccc(F)c1,1
8,CCCCCCCCCCCCCCCC[N+](C)(C)Cc1ccccc1.[Cl-],0.311
9,CN(C)S(=O)(=O)Nc1ccc(C(=O)O)cc1,1.08
10,CO[C@H]1O[C@H](CO)[C@@H](OC(=O)c2ccc(Br)cc2)[C@@H]2OC(=O)[C@H](Cc3ccccc3)C/C=C/C[C@@H](Cc3ccccc3)C(=O)O[C@@H]12,1.17
11,C[C@H]1CN([C@@H](C)CO)S(=O)(=O)c2ccc(C#CC(C)(C)O)cc2O[C@H]1CN(C)Cc1ccccc1,0.754
12,O/N=C/c1ccc2ccccc2c1,0.812
13,COc1cccc(S(=O)(=O)N(C)C[C@@H]2Oc3cc(C#CCC(C)C)ccc3S(=O)(=O)N([C@H](C)CO)C[C@H]2C)c1,1.19
14,NCc1ccccc1CC(=O)NC1C(=O)N2C(C(=O)O)=C(CSc3nnnn3CC(=O)O)CSC12 (stereo not drawn),1.24
15,CC(=O)[C@@]1(O)CC[C@H]2[C@@H]3C=C(Cl)C4=CC(=O)[C@@H]5C[C@@H]5[C@]4(C)[C@H]3CC[C@@]21C,1.05
16,C[C@H](O)C#Cc1ccc2c(c1)O[C@@H](CN(C)C)[C@@H](C)CN([C@H](C)CO)S2(=O)=O,1.05
17,N[C@H]1CCc2nc3ccccc3c(=O)n2[C@@H]1c1ccsc1,1.07
18,O=C(NCCO)c1cc2ccccc2c(=O)s1,0.862
19,CC(C)(C)OC(=O)Cn1ccc(=O)[nH]c1=O,1.05
20,CO[C@H]1CN(C)C(=O)c2cc(NS(=O)(=O)c3cn(C)cn3)ccc2OC[C@@H](C)N(Cc2cccc(F)c2)C[C@@H]1C,0.831

row,Compound,relative growth
1,COc1c(-c2coc3cc4c(cc3c2=O)CC(O)C(C)(C)O4)ccc2c1C=CC(C)(C)O2 (stereo not drawn),0.946
2,CS(=O)(=O)NCc1nnnn1-c1ccc(F)c(F)c1,1.02
3,COC[C@@H](C)NC(=O)C(=O)NC1CC1,1.02
4,CC1C(=O)O[C@H]2C1CCC1(C)CCC(=O)[C@@H](C)[C@H]21 (stereo partly drawn),0.946
5,Cl.c1ccc2c(CC3=NCCN3)cccc2c1,0.941
6,Clc1cccc(Cl)c1CSc1cccs1,1.06
7,O=S1(=O)N[C@H](c2ccccc2)CO1,1.04
8,CNC(=O)Cn1c(=O)c2c(N3CCN(C(=O)C4CC4)CC3)ccnc2n(C)c1=O,1.12
9,CO[C@@H](CN(C)C(=O)c1ccccc1F)[C@@H](C)CN([C@@H](C)CO)S(=O)(=O)c1ccc(Cl)cc1,0.853
10,Cc1cc(C(C)(C)CC(C)(C)C)ccc1OCCOCC[N+](C)(C)Cc1ccccc1.[Cl-],0.152
11,CN(C)CC(=O)N[C@@H]1CC[C@H](CCNC(=O)C2CC2)O[C@H]1CO,1.12
12,O=C(C[n+]1ccc(/C=N/O)cc1)N1CCCCC1,1.04
13,O=C(O)c1cc2ncc(CCO)cn2n1,0.984
14,COc1ccccc1CNC(=O)C[C@H]1CC[C@H]2[C@@H](COC[C@H](O)CN2C(=O)Nc2ccc(Cl)cc2)O1,1.01
15,CC(C)(C(=O)O)c1ccc(C(O)CCCN2CCC(C(O)(c3ccccc3)c3ccccc3)CC2)cc1.Cl (stereo not drawn),1.06
16,Cc1cn[nH]c1,0.962
17,CN(Cc1cc(Br)cc(Br)c1N)C1CCCCC1.Cl,1.13
18,CCCNC(=O)N(C)C[C@H]1Oc2cc(C#Cc3cccc(F)c3)ccc2S(=O)(=O)N([C@@H](C)CO)C[C@@H]1C,0.912
